Assay results published in publication PMC7047876, “Potent Chimeric Antimicrobial Derivatives of the Medicago truncatula NCR247 Symbiotic Peptide” (Frontiers in Microbiology, 2020).

Tested on: human erythrocytes
Assay: Hemolysis assay
Format: cell-based
Method: To evaluate possible side effects of the NCR247-based peptides, hemolysis and cytotoxicity assays were performed. Human blood was purchased from the Regional Blood Centre in Szeged. The use of human blood for the hemolysis assay has been authorized by the Regional Hungarian Ethics Committee and approved by the Ethics Review Sector of DG RTD (European Commission) in connection with EK’s ERC AdG SymBiotics. The cells from 1.2 mL of EDTA-blood were centrifuged at 1500 × g for 1 min and washed several times in TBS buffer (10 mM Tris, pH = 7.2, 150 mM NaCl) until the supernatant became colorless. The cells were then resuspended in 12 mL TBS buffer. 100 μL of this cell suspension was incubated with 100 μL of the peptides at 100 and 25 μM. Samples were incubated for 1 h at 37°C, and after centrifugation of the cells at 1500 g for 1 min, the supernatants were transferred into sterile 96-well plates and the hemoglobin release was measured at OD560 (Multiskan FC microplate reader, Thermo Fisher Scientific). Melittin (Bachem) at 50 μg/mL and TBS without peptides were used as positive and negative controls, respectively. Relative hemolytic activity (RHA) of each peptide was calculated as follows: (Compound OD560 −TBS OD560) × 100/(Melittin OD560 −TBS OD560).

**Q.** Which “RHA% (relative hemolytic activity), positive control” value (melittin at 50 μg/mL (reference = 100)) does the source give for `CC[C@H](C)[C@H](NC(=O)CN)C(=O)NCC(=O)N[C@@H](C)C(=O)N[C@H](C(=O)N[C@@H](CC(C)C)C(=O)N[C@@H](CCCCN)C(=O)N[C@H](C(=O)N[C@@H](CC(C)C)C(=O)N[C@H](C(=O)N[C@H](C(=O)NCC(=O)N[C@@H](CC(C)C)C(=O)N1CCC[C@H]1C(=O)N[C@@H](C)C(=O)N[C@@H](CC(C)C)C(=O)N[C@H](C(=O)N[C@@H](CO)C(=O)N[C@@H](Cc1c[nH]c2ccccc12)C(=O)N[C@H](C(=O)N[C@@H](CCCCN)C(=O)N[C@@H](CCCNC(=N)N)C(=O)N[C@@H](CCCCN)C(=O)N[C@@H](CCCNC(=N)N)C(=O)N[C@@H](CCC(N)=O)C(=O)N[C@@H](CCC(N)=O)C(N)=O)[C@@H](C)CC)[C@@H](C)CC)[C@@H](C)O)[C@@H](C)O)C(C)C)C(C)C` [Melittin] here?
**A.** 100%

**Q.** And the “OD560 AVE ± SD (hemoglobin release), positive control” value (melittin at 50 μg/mL, human erythrocytes in TBS pH 7.2, 1 h, 37°C)?
**A.** 1.14 ± 0.364
